The chains behind the UniProt entries cited, without tags or fusion partners. A line that says so, or that is headed by a name, gives the form on record, which may keep a tag or linker.
UniProt Q9NZQ7, with tags, fused parts or gaps: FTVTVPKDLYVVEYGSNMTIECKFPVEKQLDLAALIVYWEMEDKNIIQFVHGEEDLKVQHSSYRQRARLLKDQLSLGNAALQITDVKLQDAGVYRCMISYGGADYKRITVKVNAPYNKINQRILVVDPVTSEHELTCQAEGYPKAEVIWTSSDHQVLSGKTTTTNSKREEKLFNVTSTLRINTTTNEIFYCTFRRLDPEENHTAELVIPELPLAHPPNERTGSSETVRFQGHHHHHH

In patent US9850283B2, “Macrocyclic inhibitors of the PD-1/PD-L1 and CD80(B7-1)/PD-L1 protein/protein interactions” (BRISTOL-MYERS SQUIBB COMPANY, priority 2013, dated 2017):

Molecular target: T1, Human PD-L1/PD-1 (Homo sapiens, UniProt Q9NZQ7)
T1 construct: made in house; host or cells: HEK293T
Assay: HTRF PD-1-Ig/PD-L1-His binding assay (human PD-L1)
Conditions: Table 8, Compound No. 1 variant macrocyclic peptides
From the text: The ability of the macrocyclic peptides of the present disclosure to bind to PD-L1 was investigated using a PD-1/PD-L1 Homogenous Time-Resolved Fluorescence (HTRF) binding assay.
Homogenous Time-Resolved Fluorescence (HTRF) Assays of Binding of Soluble PD-1 to Soluble PD-L1. Soluble PD-1 and soluble PD-L1 refers to proteins with carboxyl-end truncations that remove the transmembrane-spanning regions and are fused to heterologous sequences, specifically the Fc portion of the human immunoglobuling G sequence (Ig) or the hexahistidine epitope tag (His). All binding studies were performed in an HTRF assay buffer consisting of dPBS supplemented with 0.1% (w/v) bovine serum albumin and 0.05% (v/v) Tween-20. […] PD-L1 fusion proteins from either human, cynomologous macaques, or mouse were used. HTRF detection was achieved using europium crypate-labeled anti-Ig monoclonal antibody (1 nM final) and allophycocyanin (APC) labeled anti-His monoclonal antibody (20 nM final). Antibodies were diluted in HTRF detection buffer and 5 μl was dispensed on top of binding reaction.

IC50: 9 nM
Compound: CCCC[C@H]1C(=O)N(C)[C@@H](CCCC)C(=O)N[C@@H](CCCNC(=N)N)C(=O)N[C@H](C(=O)NCC(N)=O)CSCC(=O)N[C@@H](Cc2ccccc2)C(=O)N(C)[C@@H](C)C(=O)N[C@@H](CC(N)=O)C(=O)N2CCC[C@H]2C(=O)N[C@@H](Cc2cnc[nH]2)C(=O)N[C@@H](CC(C)C)C(=O)N[C@@H](CO)C(=O)N[C@@H](Cc2c[nH]c3ccccc23)C(=O)N[C@@H](CO)C(=O)N[C@@H](Cc2c[nH]c3ccccc23)C(=O)N1C [Compound No. 57]
